Experimental data taken from patent US8207189B2, “Compound having affinity for amyloid” (Nihon Medi-Physics Co., Ltd., priority 2007, dated 2012).

Sequences of proteins named here, by UniProt entry; tags and fusion partners are left off. Residues count along the entry.
UniProt P05067, 672-713: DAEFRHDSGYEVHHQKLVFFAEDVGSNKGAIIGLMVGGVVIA

Biological target: T1, amyloid (aggregated Aβ1-42) (Homo sapiens, UniProt P05067)
T1 construct: Aβ1-42 (manufactured by Wako) was dissolved in phosphate buffer (pH 7.4); purchased Wako
Test: in vitro binding test: inhibition of [125I]3′-I-BTA-0 binding to amyloid
Settings: [125I]3′-I-BTA-0 400 pmol/L, amyloid 1 μmol/L, 22°C, 3 hours
Method: Affinity of the present compounds with amyloid was examined by the following in vitro binding tests.
The measured radioactivity level was defined as the background radioactivity level, and used in the calculation of the inhibition ratio (hereinafter referred to as BG).
(9) Using the radioactivity levels measured above in (7) and (8), the inhibition ratio was determined by the following formula (1).
A graph in which values converted by probit transformation from the obtained inhibition ratios were plotted relative to logarithms of concentrations of compounds for evaluation was prepared to obtain an approximate straight line by the least square method.

Structure (SMILES): Cc1ccc2c(c1)sc(-c1ccc(N(C)C)cc1)[n+]2C [Thioflavin T]
- IC50: > 1000 nM
